# CycPeptMPDB entries from one study

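Lipid, pH, incubation time, direction and concentration are not recorded in the data file. The list need not hold all peptides of the study. Entries at the database's floor value (log10 P of -10) are not listed.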

PAMPA measures passive passage through an artificial lipid membrane.
Values are log10 P with P in cm/s, so -5 is more permeable than -7.

| SMILES | PAMPA (log10 cm/s) |
|---|---|
| CCCN1CC(=O)N(C)[C@H](CC(C)C)C(=O)N(C)[C@@H](CC(C)C)C(=O)N2CCC[C@H]2C(=O)N(Cc2ccccc2)CC(=O)N[C@@H](Cc2ccccc2)C1=O | -4.97 |
| CC(C)C[C@H]1C(=O)N(Cc2ccccc2)CC(=O)N2CCC[C@H]2C(=O)N(C)[C@@H](CC(C)C)C(=O)N[C@@H](Cc2ccccc2)C(=O)N[C@@H](C)C(=O)N1C | -5.52 |
| CCCN1CC(=O)N[C@@H](CC(C)C)C(=O)N[C@@H](CC(C)C)C(=O)N2CCC[C@H]2C(=O)N(C)[C@@H](CC(C)C)C(=O)N[C@@H](Cc2ccccc2)C(=O)N2CCC[C@H]2C1=O | -5.78 |
| CCCN1CC(=O)N(C)[C@@H](CC(C)C)C(=O)N[C@@H](Cc2ccccc2)CC(=O)N2CCC[C@H]2C(=O)N[C@H](CC(C)C)C(=O)N[C@@H](Cc2ccccc2)C(=O)N2CCC[C@@H]2C1=O | -5.94 |
| CC(C)C[C@@H]1C(=O)N(C)[C@H](CC(C)C)C(=O)N2CCC[C@H]2C(=O)N[C@H](CC(C)C)C(=O)N[C@@H](Cc2ccccc2)C(=O)N2CCC[C@@H]2C(=O)N[C@@H](C)C(=O)N1C | -6.22 |
| CC(C)C[C@@H]1C(=O)N(C)[C@@H](CC(C)C)C(=O)N2CCC[C@@H]2C(=O)N(Cc2ccccc2)CC(=O)N[C@@H](Cc2ccccc2)C(=O)N[C@@H](C)C(=O)N1C | -5.28 |
| CC(C)C[C@H]1NC(=O)[C@@H](C)NC(=O)[C@H](Cc2ccccc2)NC(=O)[C@H](CC(C)C)N(C)C(=O)[C@H]2CCCN2C(=O)CN(Cc2ccccc2)C1=O | -5.89 |
| CCCN1CC(=O)N(C)[C@H](CC(C)C)C(=O)N(C)[C@H](CC(C)C)C(=O)N2CCC[C@@H]2C(=O)N(Cc2ccccc2)CC(=O)N[C@@H](Cc2ccccc2)C1=O | -5.70 |
| CC(C)C[C@@H]1NC(=O)[C@H](CC(C)C)N(C)C(=O)C[C@H](Cc2ccccc2)NC(=O)[C@H](Cc2ccccc2)NC(=O)[C@@H](CC(C)C)N(C)C(=O)[C@@H]2CCCN2C1=O | -5.26 |
| CC(C)C[C@@H]1C(=O)N[C@H](CC(C)C)C(=O)N2CCC[C@@H]2C(=O)N(C)[C@@H](CC(C)C)C(=O)N[C@@H](Cc2ccccc2)C(=O)N[C@H](C)C(=O)N1C | -5.30 |
| CC(C)C[C@@H]1C(=O)N[C@@H](Cc2ccccc2)C(=O)N2CCC[C@@H]2C(=O)N(C)[C@@H](C)C(=O)N(C)[C@H](CC(C)C)C(=O)N(C)[C@@H](CC(C)C)C(=O)N2CCC[C@@H]2C(=O)N1C | -5.16 |
| CC(C)C[C@@H]1C(=O)N[C@H](CC(C)C)C(=O)N2CCC[C@H]2C(=O)N(C)[C@@H](CC(C)C)C(=O)N[C@@H](Cc2ccccc2)C(=O)N2CCC[C@@H]2C(=O)N(C)[C@H](C)C(=O)N1C | -4.90 |
| CCCN1CC(=O)N(C)[C@@H](CC(C)C)C(=O)N[C@@H](Cc2ccccc2)CC(=O)N2CCC[C@H]2C(=O)N(C)[C@H](CC(C)C)C(=O)N[C@@H](Cc2ccccc2)C(=O)N2CCC[C@H]2C1=O | -5.67 |
| CC(C)C[C@@H]1C(=O)N2CCC[C@H]2C(=O)N(C)[C@H](CC(C)C)C(=O)N[C@@H](Cc2ccccc2)C(=O)N2CCC[C@H]2C(=O)N(C)[C@@H](C)C(=O)N(C)[C@H](CC(C)C)C(=O)N1C | -5.80 |
| CCCN1CC(=O)N[C@@H](CC(C)C)C(=O)N[C@H](CC(C)C)C(=O)N2CCC[C@H]2C(=O)N[C@H](CC(C)C)C(=O)N[C@@H](Cc2ccccc2)C1=O | -5.73 |
| CC(C)C[C@H]1NC(=O)[C@H](C)N(C)C(=O)[C@H](Cc2ccccc2)NC(=O)[C@H](CC(C)C)N(C)C(=O)[C@H]2CCCN2C(=O)CN(Cc2ccccc2)C1=O | -5.11 |
| CC(C)C[C@@H]1C(=O)N2CCC[C@H]2C(=O)N[C@H](CC(C)C)C(=O)N[C@@H](Cc2ccccc2)C(=O)N2CCC[C@@H]2C(=O)N[C@@H](Cc2ccccc2)CC(=O)N[C@H](CC(C)C)C(=O)N1C | -5.82 |
| CC(C)C[C@@H]1NC(=O)[C@H](C)NC(=O)[C@H](Cc2ccccc2)NC(=O)[C@H](CC(C)C)N(C)C(=O)[C@@H]2CCCN2C(=O)C[C@H](Cc2ccccc2)NC1=O | -5.58 |
| CCCN1CC(=O)N[C@@H](CC(C)C)C(=O)N(C)[C@H](CC(C)C)C(=O)N2CCC[C@H]2C(=O)N(Cc2ccccc2)CC(=O)N[C@@H](Cc2ccccc2)C(=O)N2CCC[C@@H]2C1=O | -5.64 |
| CCCN1CC(=O)N[C@@H](CC(C)C)C(=O)N(C)[C@@H](CC(C)C)C(=O)N2CCC[C@@H]2C(=O)N[C@H](CC(C)C)C(=O)N[C@@H](Cc2ccccc2)C1=O | -5.68 |
| CC(C)C[C@@H]1NC(=O)[C@@H](C)NC(=O)[C@@H]2CCCN2C(=O)[C@H](Cc2ccccc2)NC(=O)[C@H](CC(C)C)N(C)C(=O)[C@@H]2CCCN2C(=O)[C@H](CC(C)C)N(C)C1=O | -5.83 |
| CC(C)C[C@@H]1NC(=O)[C@H]2CCCN2C(=O)[C@H](CC(C)C)NC(=O)[C@@H](CC(C)C)N(C)C(=O)[C@@H](C)N(C)C(=O)[C@H](Cc2ccccc2)NC1=O | -5.10 |
| CCCN1CC(=O)N[C@H](CC(C)C)C(=O)N[C@@H](CC(C)C)C(=O)N2CCC[C@H]2C(=O)N[C@@H](CC(C)C)C(=O)N[C@@H](Cc2ccccc2)C(=O)N2CCC[C@H]2C1=O | -6.40 |

Values of Townsend et al. 2020, doi:10.26434/chemrxiv.13335941.v1, as listed in CycPeptMPDB.